Laboratory results from patent publication US20240024488A1, “COMPOUNDS AND USES THEREOF” (Foghorn Therapeutics Inc., priority 2020, published 2024).

By UniProt entry, the sequences of proteins in these tests, tags left out.
UniProt P51532, whole entry: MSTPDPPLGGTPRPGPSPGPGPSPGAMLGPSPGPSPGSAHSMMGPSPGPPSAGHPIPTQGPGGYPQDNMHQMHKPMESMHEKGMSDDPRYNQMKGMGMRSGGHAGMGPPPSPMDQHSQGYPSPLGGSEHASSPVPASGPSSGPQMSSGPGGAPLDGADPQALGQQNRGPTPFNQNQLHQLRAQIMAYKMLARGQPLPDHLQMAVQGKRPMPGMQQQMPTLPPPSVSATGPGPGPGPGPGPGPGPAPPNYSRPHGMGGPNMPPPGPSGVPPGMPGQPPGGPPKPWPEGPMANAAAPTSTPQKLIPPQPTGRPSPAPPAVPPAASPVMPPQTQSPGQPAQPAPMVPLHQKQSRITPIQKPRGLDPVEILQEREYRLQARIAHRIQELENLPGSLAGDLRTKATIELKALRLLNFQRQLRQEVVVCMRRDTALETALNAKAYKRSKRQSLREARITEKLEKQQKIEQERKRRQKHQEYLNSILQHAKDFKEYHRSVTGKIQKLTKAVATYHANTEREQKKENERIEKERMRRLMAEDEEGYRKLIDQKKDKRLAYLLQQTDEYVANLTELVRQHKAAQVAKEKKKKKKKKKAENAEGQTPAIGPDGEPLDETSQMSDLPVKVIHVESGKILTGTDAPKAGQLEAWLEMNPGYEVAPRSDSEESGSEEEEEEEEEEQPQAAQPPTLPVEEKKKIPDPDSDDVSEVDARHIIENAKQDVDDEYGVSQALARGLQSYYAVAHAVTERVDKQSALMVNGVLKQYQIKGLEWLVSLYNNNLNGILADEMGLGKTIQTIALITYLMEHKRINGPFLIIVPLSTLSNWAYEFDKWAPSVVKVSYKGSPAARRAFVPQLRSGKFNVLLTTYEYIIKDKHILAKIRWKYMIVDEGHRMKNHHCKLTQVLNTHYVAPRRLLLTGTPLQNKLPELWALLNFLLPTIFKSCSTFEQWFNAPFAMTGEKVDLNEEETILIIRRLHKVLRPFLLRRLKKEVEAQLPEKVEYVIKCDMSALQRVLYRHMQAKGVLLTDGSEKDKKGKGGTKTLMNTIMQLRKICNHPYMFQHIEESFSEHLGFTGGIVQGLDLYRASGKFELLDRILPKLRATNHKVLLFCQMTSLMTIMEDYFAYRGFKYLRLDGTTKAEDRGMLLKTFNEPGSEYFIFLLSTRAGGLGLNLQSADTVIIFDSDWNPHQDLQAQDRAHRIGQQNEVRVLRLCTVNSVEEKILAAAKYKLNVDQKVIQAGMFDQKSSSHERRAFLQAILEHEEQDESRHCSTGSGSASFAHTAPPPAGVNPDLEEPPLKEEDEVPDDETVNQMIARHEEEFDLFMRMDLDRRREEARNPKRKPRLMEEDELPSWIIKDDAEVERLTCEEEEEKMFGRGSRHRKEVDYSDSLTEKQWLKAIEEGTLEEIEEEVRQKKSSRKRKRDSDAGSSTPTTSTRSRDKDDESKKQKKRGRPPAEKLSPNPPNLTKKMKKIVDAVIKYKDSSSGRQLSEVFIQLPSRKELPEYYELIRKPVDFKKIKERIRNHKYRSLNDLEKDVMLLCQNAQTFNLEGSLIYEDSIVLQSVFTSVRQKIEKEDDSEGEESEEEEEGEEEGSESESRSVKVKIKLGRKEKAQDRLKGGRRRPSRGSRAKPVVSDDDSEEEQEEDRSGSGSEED

What follows are compounds tested against T1, HiBit-BRG1 fusion protein (Homo sapiens, UniProt P51532) (assay: HiBiT-BRG1 cell-based degradation assay (Nano-Glo HiBiT Lytic Detection, 24 h)). Details: HeLa, read-out: BRG1 HiBit Degradation Maximum (%).
T1 construct: expressed in transfected cells
Protocol: Procedure: A stable HeLa cell line expressing HiBiT-BRM was generated. On day 0, 5000 cells were seeded in 40 μL of media into each well of 384-well cell culture plates. […] Subsequently plates were incubated for 24 h in a standard tissue culture incubator and equilibrated at room temperature for 15 minutes. Nano-Glo HiBiT Lytic Detection System (Promega N3050) reagent was freshly prepared and 20 ul was added to each well. Upon addition of this LgBit-containing reagent, the HiBiT and LgBiT proteins associate to form the luminescent NanoBiT luciferase. The plates were shaken for 10 minutes at room temperature and the bioluminescence read using an EnVision plate reader (PerkinElmer).
For measurement of BRG1 degradation, a stable HeLa cell line expressing HiBit-BRG1 and LgBit was generated. The same protocol as above was then followed.
The degradation % was calculated using the following formula: % degradation=100%−100%×(LumSample−LumLC)/(LumHC−LumLC). DMSO treated cells are employed as High Control (HC) and 2 μM of a known BRM/BRG1 degrader standard treated cells are employed as Low Control (LC).

`Cc1ncsc1-c1ccc([C@H](C)NC(=O)[C@@H]2C[C@@H](O)CN2C(=O)[C@@H](c2cc(N3CCN(C(=O)N4CC(c5cc6cc(-c7ccccc7O)nnc6[nH]5)C4)CC3)no2)C(C)C)cc1` (racemic) [Compound 124, (2S,4R)-4-hydroxy-1-[(2R)-2-[3-(4-{3-[3-(2-hydroxyphenyl)-7H-pyrrolo[2,3-c]pyridazin-6-yl]azetidine-1-carbonyl}piperazin-1-yl)-1,2-oxazol-5-yl]-3-methylbutanoyl]-N-[(1S)-1-[4-(4-methyl-1,3-thiazol-5-yl)phenyl]ethyl]pyrrolidine-2-carboxamide] and `Cc1ncsc1-c1ccc([C@H](C)NC(=O)[C@@H]2C[C@@H](O)CN2C(=O)[C@@H](c2cc(N3CCN(CCC(=O)N4CC(c5cc6cc(-c7ccccc7O)nnc6[nH]5)C4)CC3)no2)C(C)C)cc1` (racemic) [Compound 268, (2S,4R)-4-hydroxy-1-[(2R)-2-{3-[4-(3-{3-[3-(2-hydroxyphenyl)-7H-pyrrolo[2,3-c]pyridazin-6-yl]azetidin-1-yl}-3-oxopropyl)piperazin-1-yl]-1,2-oxazol-5-yl}-3-methylbutanoyl]-N-[(1S)-1-[4-(4-methyl-1,3-thiazol-5-yl)phenyl]ethyl]pyrrolidine-2-carboxamide] cannot be ordered by Dmax: greater than 75% for the first, greater than 75% for the second.

`Cc1ncsc1-c1ccc([C@H](C)NC(=O)[C@@H]2C[C@@H](O)CN2C(=O)[C@@H](c2cc(N3CCN(CCN4CC(c5cc6cc(-c7ccccc7O)nnc6[nH]5)C4)CC3)no2)C(C)C)cc1` (racemic) [Compound 273, (2S,4R)-4-hydroxy-1-[(2R)-2-{3-[4-(2-{3-[3-(2-hydroxyphenyl)-7H-pyrrolo[2,3-c]pyridazin-6-yl]azetidin-1-yl}ethyl)piperazin-1-yl]-1,2-oxazol-5-yl}-3-methylbutanoyl]-N-[(1S)-1-[4-(4-methyl-1,3-thiazol-5-yl)phenyl]ethyl]pyrrolidine-2-carboxamide] and `Cc1ncsc1-c1ccc([C@H](C)NC(=O)[C@@H]2C[C@@H](O)CN2C(=O)[C@@H](c2cc(OCCN3CC(c4cc5cc(-c6ccccc6O)nnc5[nH]4)C3)no2)C(C)C)cc1` [Compound 14, (2S,4R)-4-hydroxy-1-((R)-2-(3-(2-(3-(3-(2-hydroxyphenyl)-7H-pyrrolo[2,3-c]pyridazin-6-yl)azetidin-1-yl)ethoxy)isoxazol-5-yl)-3-methylbutanoyl)-N—((S)-1-(4-(4-methylthiazol-5-yl)phenyl)ethyl)pyrrolidine-2-carboxamide formate] cannot be ordered by Dmax: less than 50% for the first, less than 50% for the second.

`Cc1ncsc1-c1ccc([C@H](C)NC(=O)[C@@H]2C[C@@H](O)CN2C(=O)[C@@H](c2cc(OCCN3CC(c4c[nH]c5nnc(-c6ccccc6O)cc45)C3)no2)C(C)C)cc1` [Compound 15, (2S,4R)-4-hydroxy-1-((R)-2-(3-(2-(3-(3-(2-hydroxyphenyl)-7H-pyrrolo[2,3-c]pyridazin-5-yl)azetidin-1-yl)ethoxy)isoxazol-5-yl)-3-methylbutanoyl)-N—((S)-1-(4-(4-methylthiazol-5-yl)phenyl)ethyl)pyrrolidine-2-carboxamide formate] and `Cc1ncsc1-c1ccc([C@H](C)NC(=O)[C@@H]2C[C@@H](O)CN2C(=O)[C@@H](c2cc(C3CCN(C(=O)N4CCc5[nH]c6nnc(-c7ccccc7O)cc6c5C4)CC3)no2)C(C)C)cc1` [Compound 105, (2S,4R)-4-hydroxy-1-((R)-2-(3-(1-(3-(2-hydroxyphenyl)-6,7,8,9-tetrahydro-5H-pyrido[3′,4′:4,5]pyrrolo[2,3-c]pyridazine-6-carbonyl)piperidin-4-yl)isoxazol-5-yl)-3-methylbutanoyl)-N—((S)-1-(4-(4-methylthiazol-5-yl)phenyl)ethyl)pyrrolidine-2-carboxamide] cannot be ordered by Dmax: less than 50% for the first, less than 50% for the second.

Structures can show the parent of a compound that is named as a salt.
